Screens from PubChem.
JMJD2E inh = blocks human JMJD2E demethylase activity; B2RXH2; JMJD2E catalytic domain, FDH-coupled NADH fluorescence (FDH is formaldehyde dehydrogenase); Potency, µM (doses to about 57.1 µM), most hits filed as inhibitors; actives 1.6% (n = 230,000); AID 2147; active = well fitted inhibition curve with a large enough effect, not every such curve was filed as active; inconclusive = small, poorly fitted or top-dose-only effect, or another doubt; inactive = no such curve, though single readings can be large or run the other way; note: nearly all actives have a fitted effect of over 50% in size
LMNA splice mod = changes lamin A minigene splicing in HeLa cells | HeLa LMNA splicing GFP/RFP minigene ratio, 48 h | Potency, µM (doses to about 46.1 µM), actives largely listed as inhibitors | actives 0.01% (n = 200,000) | AID 1487; active = well fitted inhibition curve with a large enough effect in the signal ratio, with a control signal flat, not every such curve was filed as active; inconclusive = small, poorly fitted or top-dose-only effect, or effect the other way, or a change in a side signal; the % refers to the signal ratio
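S3 HeLa stable clones carrying a lamin A-EGFP splicing minigene plus DsRed2 were seeded at 600 cells/well in Opti-MEM with 2% FBS, pin-dosed and incubated 48 h at 37°C. Acumen cytometry (488 nm) gave the GFP/RFP total-intensity ratio.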
ALDH1A1 inh = inhibitors of human aldehyde dehydrogenase 1A1 | P00352 | Purified ALDH1A1, NADH fluorescence, propionaldehyde substrate | Potency, µM (highest dose often 75.3 µM), hits mostly inhibitors | actives 7.3% (n = 220,000) | AID 1030; active = well fitted inhibition curve with a large enough effect, not every such curve was filed as active; inconclusive = small, poorly fitted or top-dose-only effect, or another doubt; inactive = no such curve, though single readings can be large or run the other way
Sfp inh = Sfp phosphopantetheinyl transferase inhibition; Q9F4F7; Biochemical Sfp PPTase activity, qHTS; Potency, µM, hits mostly inhibitors; actives 3.5% (n = 310,000);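 note: the enzyme is Sfp with the accession as filed and its product quenches rhodamine fluorescence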
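Fluorescence-quenching assay with 15 nM Sfp, 5 uM rhodamine-CoA and 12.5 uM BHQ-2-labelled ybbR peptide in pH 7.6 Hepes/MgCl2 buffer. Enzyme was pre-incubated with compound for 15 min at room temperature. Rate was taken from the 30-min fluorescence change (525/598 nm).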
G9a block = blocks human histone lysine methyltransferase G9a; Q96KQ7; G9a H3K9 monomethylation, AlphaScreen, 2 h; Potency, µM (highest dose often 102 µM), actives largely listed as inhibitors; actives 8.8% (n = 350,000); AID 504332; note: nearly all actives have a fitted effect of over 75% in size
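Methyltransferase reactions run at room temperature for 2 h (20 nM enzyme, 500 nM biotin-H3K9 peptide, 20 uM SAM) after a 15 min compound preincubation; product detected by AlphaScreen beads and anti-H3K9me1 antibody.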
miR-21 FLuc = raises the signal of a miR-21 reporter | AID 2288 | 340,000 tested, under 10 active | Potency, µM (series often up to 38.3 µM) | HeLa miR-21 FLuc reporter, luciferase, 48 h; active = well fitted rising curve with a large enough effect; inconclusive = small, poorly fitted or top-dose-only effect; inactive = no such curve, though single readings can be large or run the other way;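 further: miR-21 action dims this reporter so a rising signal means less miR-21 action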
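Luminescence from a firefly luciferase reporter carrying a miR-21 binding site downstream, stably expressed under a CMV promoter in HeLa cells that make miR-21 endogenously, reports miRNA modulation after 48 h compound exposure up to approximately 40uM final.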
Each line names hits and unclear results; the compound was inactive in the other large screens; ! = a repeat was not active. This is a sample that favours compounds with a hit; in the whole collection about 13% have one here. Unless noted, calls come from the whole dose curve; as a rule, active = well fitted curve in the direction sought with a large enough effect; inconclusive = small, poorly fitted or top-dose-only effect, or another doubt; inactive = no such curve, though single readings can be large; an effect the other way counts as inactive or inconclusive.

Clc1ccc(-c2nnc(NCc3ccccc3)c3ccccc23)cc1	ALDH1A1 inh 22µM
CN(CCCNC(=O)c1cc2c(=O)n(C)c3ccccc3c2s1)Cc1ccccc1	none (no result: JMJD2E inh, LMNA splice mod, ALDH1A1 inh, Sfp inh)
Cc1c(C(=O)OCC[N+]2(C)CCCCC2)oc2ccccc12	JMJD2E inh 25µM, G9a block 28µM
CC1CC(C)CN(c2cc(N(C)CCO)c([N+](=O)[O-])c3nonc23)C1 (stereo not drawn)	ALDH1A1 inh 11µM
CC(C)c1ccc(NC(=O)CSc2nc(=O)n(CCN3CCOCC3)c3c2CCC3)cc1	none (no result: JMJD2E inh, LMNA splice mod, ALDH1A1 inh, Sfp inh, miR-21 FLuc)
Oc1ccc(-c2nc(-c3ccc(O)c(O)c3)cs2)cc1	JMJD2E inh 28µM, LMNA splice mod inconclusive, ALDH1A1 inh 11µM, Sfp inh 79µM, G9a block 8.9µM
COC(=O)[C@H]1C[C@@H]1[C@H](NC(=O)c1cc(C)nn1C)c1ccccc1	ALDH1A1 inh inconclusive (no result: LMNA splice mod, G9a block, miR-21 FLuc)
Cc1cccc(C(=O)NC(=S)Nc2ccccc2C(=O)O)c1	JMJD2E inh inconclusive, ALDH1A1 inh inconclusive, Sfp inh inconclusive, G9a block 45µM (no result: LMNA splice mod)
Cc1ccc(C(=O)NC(=S)Nc2ccccc2C(F)(F)F)cc1C	ALDH1A1 inh 4.5µM
Cc1ccc2c(NC(=S)NC(=O)c3ccccc3)cccc2n1	Sfp inh 56µM (no result: JMJD2E inh, LMNA splice mod, ALDH1A1 inh, G9a block)
Cc1cc(C(=O)Nc2ccccc2C(F)(F)F)no1	none
Cc1c(NC(=S)NC(=O)c2cccc3ccccc23)cccc1C(=O)O	none (no result: JMJD2E inh, LMNA splice mod, ALDH1A1 inh)
O=C(O)c1ccccc1NC(=S)NC(=O)c1cccc2ccccc12	JMJD2E inh inconclusive, ALDH1A1 inh inconclusive, Sfp inh 50µM, G9a block 50µM
COc1ccc(C2=CC(c3ccc(F)cc3)n3ncc(C(=O)Nc4ccc(C)cc4)c3N2)cc1 (stereo not drawn)	LMNA splice mod inconclusive (no result: JMJD2E inh, ALDH1A1 inh, Sfp inh)
COc1cccc(N2CCN(c3ncnc4onc(-c5ccc(F)cc5)c34)CC2)c1	none (no result: JMJD2E inh, ALDH1A1 inh, Sfp inh)
COc1ccc(/C=C\c2onc(C)c2S(=O)(=O)N2CCC(C(=O)Nc3ccc(F)cc3F)CC2)cc1	none (no result: JMJD2E inh, LMNA splice mod, ALDH1A1 inh, Sfp inh)
Cc1cccc(C(=O)NC(=S)Nc2ccccc2C(F)(F)F)c1	ALDH1A1 inh 18µM
COc1ccc(-n2nc([N+](=O)[O-])c(=NCCc3cccc(C)c3)n2O)cc1	ALDH1A1 inh inconclusive, G9a block 32µM (no result: LMNA splice mod)
CCCOc1ccccc1-c1nc2n[nH]nc2c(=O)[nH]1	LMNA splice mod inconclusive, ALDH1A1 inh 20µM!, G9a block 14µM! (no result: miR-21 FLuc)
CCCc1nn(C)c2c(=O)[nH]c(-c3ccccc3OCC)nc12	LMNA splice mod inconclusive, ALDH1A1 inh inconclusive, G9a block inconclusive
CCN(c1ccccc1)S(=O)(=O)c1ccc(OC)c(NC(=O)c2cc(Cl)ccn2)c1	G9a block 56µM (no result: JMJD2E inh, LMNA splice mod, ALDH1A1 inh, Sfp inh, miR-21 FLuc)
COc1ccc(OC)c(NC(=O)c2ccc(CN(c3cc(Cl)ccc3C)S(=O)(=O)c3ccccc3)cc2)c1	JMJD2E inh inconclusive, Sfp inh 79µM
O=C(Cn1cc(C(F)(F)F)ccc1=O)N/N=C/c1ccccc1O	JMJD2E inh 10µM (no result: LMNA splice mod, ALDH1A1 inh)
O=Cc1cn[nH]c1-c1cccc([N+](=O)[O-])c1	none (no result: LMNA splice mod)
O=C(O)c1cn[nH]c1-c1cccc([N+](=O)[O-])c1	G9a block 35µM (no result: LMNA splice mod)
O=C(c1ccc(Cl)cc1)C1CCCN(Cc2ccc(Oc3ncccn3)cc2)C1 (stereo not drawn)	ALDH1A1 inh 28µM, G9a block inconclusive
CCOC(=O)C1CCCN(Cc2ccccc2C)C1 (stereo not drawn)	ALDH1A1 inh inconclusive, G9a block 2.5µM
CCOC(=O)C1CCCN(Cc2ccccc2Cl)C1 (stereo not drawn)	JMJD2E inh inconclusive, ALDH1A1 inh inconclusive, G9a block 11µM
CCOC(=O)N1CCN(CC(O)COc2ccc(OC)cc2C(C)(C)C)CC1 (stereo not drawn)	none
CCOC(=O)C1CCCN(CC(O)COc2ccc(OC)cc2C(C)(C)C)C1 (stereo not drawn)	G9a block 13µM
O=C(c1ccc(Cl)cc1)C1CCCN(Cc2cnn(-c3ccccc3)c2)C1 (stereo not drawn)	none (no result: LMNA splice mod)
Nc1c(Cl)cc(Cl)cc1Cl	none (no result: JMJD2E inh, LMNA splice mod, Sfp inh, G9a block, miR-21 FLuc)
CCOc1ccc(C(=O)Nc2cccc(OCc3cc(=O)n4cc(C)sc4n3)c2)cc1	none (no result: JMJD2E inh, LMNA splice mod, ALDH1A1 inh, Sfp inh)
COc1ccc(CCNC(=O)c2nc(SCc3ccc(F)cc3)ncc2Cl)cc1OC	none (no result: JMJD2E inh, LMNA splice mod, ALDH1A1 inh, Sfp inh)
CCOC(=O)C1CCCN(C(=O)CCc2ccccc2)C1 (stereo not drawn)	ALDH1A1 inh inconclusive
CCOC(=O)C1CCCN(Cc2ccc(OCC)cc2)C1 (stereo not drawn)	JMJD2E inh inconclusive, ALDH1A1 inh inconclusive, G9a block 8.9µM
CCOC(=O)C1CCCN(CCc2ccccc2)C1 (stereo not drawn)	G9a block 40µM (no result: JMJD2E inh, LMNA splice mod, ALDH1A1 inh)
Cc1ccc(-n2ncc3c(NCCC4=CCCCC4)ncnc32)cc1	G9a block inconclusive (no result: JMJD2E inh, ALDH1A1 inh, Sfp inh)
CCN1CCN(c2oc(-c3ccc(COc4ccc(C)cc4)o3)nc2C#N)CC1	LMNA splice mod inconclusive, G9a block inconclusive (no result: JMJD2E inh, ALDH1A1 inh, Sfp inh)
COc1ccc(N2CC(NC(=O)CCc3ccccc3)CC2=O)cc1OC (stereo not drawn)	LMNA splice mod inconclusive (no result: JMJD2E inh, ALDH1A1 inh, Sfp inh)
COc1ccc2c(c1)CC(C1(O)C(=O)Nc3ccccc31)C2=O (stereo not drawn)	ALDH1A1 inh 32µM
CCc1ccc(NC(=O)c2ccc3c(=O)n4nc(Nc5ccccc5C)sc4nc3c2)cc1	none (no result: JMJD2E inh, LMNA splice mod, ALDH1A1 inh, Sfp inh)
CC(=O)N/C(=N/c1nc(C)cc(C)n1)Nc1ccc(NC(C)=O)cc1	none
CC(=O)N/C(=N\c1nc(C)cc(C)n1)Nc1ccc2ccccc2c1	G9a block 79µM (no result: JMJD2E inh, LMNA splice mod, ALDH1A1 inh)
